Reference: paper PMC4838890, “Dynamic and flexible H3K9me3 bridging via HP1β dimerization establishes a plastic state of condensed chromatin” (Nature Communications, 2016)

Test system: H3K9me3 oligonucleosomes
Test: Chromatin sedimentation (clustering), H3K9me3 oligonucleosomes
Format: biochemical, Xenopus laevis
Settings: mixed H3K9me0/H3K9me3 octamers, hHP1β WT at saturating concentration, 150 mM NaCl
Description: Figure 3 hHP1β clusters oligonuclesomal arrays in dependence of H3K9me3. (a) Oligonucleosomes (2.5 nM) were incubated with increasing concentrations of hHP1β WT or I161A at 150 mM NaCl. DNA remaining in the supernatant after centrifugation was incubated with EtBr and measured by fluorescence reading. Data were normalized to amounts in absence of added protein. Averages of three independent experiments are plotted; error bars represent s.d.; n=3. (b) Analysis of the hydrodynamic radius of oligonucleosomes (10 nM; DNA labelled with ATTO 610) in the presence of increasing concentrations of hHP1β WT or I161A by FCS at 150 mM NaCl. For details on experimental setup see Supplementary Fig. 3. Error bars represent s.d.; n=3. (c) Oligonucleosomes were reconstituted after mixing H3K9me0 and H3K9me3 octamers at different ratio. […] (d) Precipitation behaviour of oligonucleosomes (2.5 nM) was analysed at different concentrations of NaCl with hHP1β WT at saturating concentration. […] Precipitated material was analysed by western blotting. […] Complexes were fixed with 0.05% (v/v) glutaraldehyde, spotted on mica surfaces and analysed by scanning force microscopy. […] (h) Quantification of results representatively shown in g according to the classification on the top: A, extended; B, partially condensed; C, fully condensed; D; aggregates; n>50 for each condition. […]

hHP1β WT: recombinant human heterochromatin protein 1β (GenBank NM_001127228), 185 aa
H3K9me3 content required for efficient chromatin clustering: more than 50%
